{
  "source": "paper PMC7235778",
  "about": "“Methylxanthines Inhibit Primary Amine Oxidase and Monoamine Oxidase Activities of Human Adipose Tissue” (Medicines, 2020)",
  "target": "T1, primary amine oxidase (PrAO; SSAO/VAP-1) (Homo sapiens, UniProt Q16853)",
  "T1 sequence (Q16853 1-763)": "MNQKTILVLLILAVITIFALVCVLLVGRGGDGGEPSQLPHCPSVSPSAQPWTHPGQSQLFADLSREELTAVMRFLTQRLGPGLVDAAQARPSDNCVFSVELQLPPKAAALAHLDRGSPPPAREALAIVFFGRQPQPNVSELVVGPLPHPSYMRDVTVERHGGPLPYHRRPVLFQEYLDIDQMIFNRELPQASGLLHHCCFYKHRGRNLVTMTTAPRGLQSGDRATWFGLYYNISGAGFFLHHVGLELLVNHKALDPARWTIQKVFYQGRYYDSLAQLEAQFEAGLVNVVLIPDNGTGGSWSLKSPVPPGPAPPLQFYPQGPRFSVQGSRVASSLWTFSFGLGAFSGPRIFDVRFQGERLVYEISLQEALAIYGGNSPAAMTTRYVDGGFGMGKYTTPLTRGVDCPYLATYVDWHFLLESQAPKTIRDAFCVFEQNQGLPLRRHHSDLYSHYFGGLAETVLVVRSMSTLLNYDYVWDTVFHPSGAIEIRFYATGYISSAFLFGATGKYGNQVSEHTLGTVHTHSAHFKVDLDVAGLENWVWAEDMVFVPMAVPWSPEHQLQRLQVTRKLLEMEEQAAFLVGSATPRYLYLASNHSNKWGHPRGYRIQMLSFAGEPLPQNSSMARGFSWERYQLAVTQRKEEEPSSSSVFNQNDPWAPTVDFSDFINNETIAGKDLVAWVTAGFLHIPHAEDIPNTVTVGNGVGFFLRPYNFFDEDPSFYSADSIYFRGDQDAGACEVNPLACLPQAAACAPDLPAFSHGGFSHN",
  "parameters": "gene AOC3",
  "data": [
    {"smiles": "CN", "note": "[methylamine]", "values": [
      {"measurement": "Amplex Red H2O2 assay in adipose tissue homogenate; semicarbazide-sensitive, par", "value": "confirming that methylamine oxidation in hScAT is entirely due to PrAO"}
    ]}
  ]
}
